Source: US20260384450A1, “MACROCYCLIC AMINOPYRIDINE COMPOUNDS AS EGFR INHIBITORS” (published 2026)
Like-named read-outs stand apart in the source and are kept apart here.

Amino acid sequences for entries named in this document (tags omitted). A change or cut given only in a name is not applied to a line headed by its entry. Chains listed by the source or under a name are the forms on record and can include a tag or linker. Residues count along the entry.
UniProt P00533, 25-1210 limits assumed: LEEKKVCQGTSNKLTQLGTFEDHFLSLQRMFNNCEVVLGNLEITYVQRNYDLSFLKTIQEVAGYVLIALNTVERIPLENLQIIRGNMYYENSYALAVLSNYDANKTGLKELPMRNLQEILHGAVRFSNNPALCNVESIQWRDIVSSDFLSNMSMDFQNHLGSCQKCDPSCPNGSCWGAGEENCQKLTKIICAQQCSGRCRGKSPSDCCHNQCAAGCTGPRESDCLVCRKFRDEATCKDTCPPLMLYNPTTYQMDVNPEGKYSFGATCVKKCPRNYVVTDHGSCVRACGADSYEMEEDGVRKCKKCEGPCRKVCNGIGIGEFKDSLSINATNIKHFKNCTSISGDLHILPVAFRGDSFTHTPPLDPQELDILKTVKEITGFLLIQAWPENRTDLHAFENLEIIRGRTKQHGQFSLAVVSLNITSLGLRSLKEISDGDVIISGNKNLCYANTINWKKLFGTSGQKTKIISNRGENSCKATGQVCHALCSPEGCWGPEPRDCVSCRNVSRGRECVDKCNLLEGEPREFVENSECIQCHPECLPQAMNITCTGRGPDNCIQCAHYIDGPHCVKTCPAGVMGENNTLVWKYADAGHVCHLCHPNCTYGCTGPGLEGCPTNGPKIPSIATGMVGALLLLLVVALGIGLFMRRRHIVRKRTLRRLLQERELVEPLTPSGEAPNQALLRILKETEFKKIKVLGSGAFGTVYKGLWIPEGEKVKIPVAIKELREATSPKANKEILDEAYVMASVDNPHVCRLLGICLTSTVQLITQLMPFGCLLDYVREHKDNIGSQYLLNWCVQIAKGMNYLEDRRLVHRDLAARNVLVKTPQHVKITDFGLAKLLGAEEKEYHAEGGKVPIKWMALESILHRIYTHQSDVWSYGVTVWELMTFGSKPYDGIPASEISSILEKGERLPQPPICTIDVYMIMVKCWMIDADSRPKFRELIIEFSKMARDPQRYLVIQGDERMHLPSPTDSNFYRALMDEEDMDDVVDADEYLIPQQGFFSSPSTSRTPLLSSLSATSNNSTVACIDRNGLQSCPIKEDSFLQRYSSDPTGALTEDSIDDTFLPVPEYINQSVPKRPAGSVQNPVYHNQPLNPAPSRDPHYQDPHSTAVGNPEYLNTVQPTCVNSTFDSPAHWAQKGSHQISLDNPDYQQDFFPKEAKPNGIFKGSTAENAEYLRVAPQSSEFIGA
UniProt P00533, 25-1210 C797S/L858R limits assumed: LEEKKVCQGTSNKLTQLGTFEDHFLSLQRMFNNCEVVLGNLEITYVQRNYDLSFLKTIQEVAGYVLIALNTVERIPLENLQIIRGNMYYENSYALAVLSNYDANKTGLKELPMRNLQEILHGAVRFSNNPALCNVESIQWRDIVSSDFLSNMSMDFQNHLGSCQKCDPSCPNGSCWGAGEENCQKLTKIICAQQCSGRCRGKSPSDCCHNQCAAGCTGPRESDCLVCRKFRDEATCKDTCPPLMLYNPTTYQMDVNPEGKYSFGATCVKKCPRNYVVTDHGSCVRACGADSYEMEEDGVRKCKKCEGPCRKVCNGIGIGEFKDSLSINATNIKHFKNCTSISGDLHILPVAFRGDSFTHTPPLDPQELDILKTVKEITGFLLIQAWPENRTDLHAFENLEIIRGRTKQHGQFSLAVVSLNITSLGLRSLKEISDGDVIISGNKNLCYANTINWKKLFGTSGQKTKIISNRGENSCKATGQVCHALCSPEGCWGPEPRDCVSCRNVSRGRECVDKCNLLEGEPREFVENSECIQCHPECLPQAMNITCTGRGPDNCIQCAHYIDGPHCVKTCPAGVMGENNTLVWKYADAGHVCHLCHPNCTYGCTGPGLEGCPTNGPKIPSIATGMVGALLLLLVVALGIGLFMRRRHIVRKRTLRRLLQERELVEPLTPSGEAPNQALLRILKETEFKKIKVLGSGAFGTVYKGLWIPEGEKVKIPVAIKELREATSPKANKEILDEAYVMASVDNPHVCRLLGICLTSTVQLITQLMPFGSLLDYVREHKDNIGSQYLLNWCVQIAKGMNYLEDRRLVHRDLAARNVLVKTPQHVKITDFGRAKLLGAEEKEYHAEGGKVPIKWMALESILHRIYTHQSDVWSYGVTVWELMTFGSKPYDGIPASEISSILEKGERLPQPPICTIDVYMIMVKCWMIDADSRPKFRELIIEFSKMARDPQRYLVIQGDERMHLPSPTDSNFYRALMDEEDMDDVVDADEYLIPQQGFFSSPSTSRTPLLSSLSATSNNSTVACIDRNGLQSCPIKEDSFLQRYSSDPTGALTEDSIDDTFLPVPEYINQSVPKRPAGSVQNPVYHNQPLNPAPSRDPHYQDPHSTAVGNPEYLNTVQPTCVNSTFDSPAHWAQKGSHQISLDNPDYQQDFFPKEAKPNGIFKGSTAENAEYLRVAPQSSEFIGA
UniProt P00533, 25-1210 T790M/C797S/L858R limits assumed: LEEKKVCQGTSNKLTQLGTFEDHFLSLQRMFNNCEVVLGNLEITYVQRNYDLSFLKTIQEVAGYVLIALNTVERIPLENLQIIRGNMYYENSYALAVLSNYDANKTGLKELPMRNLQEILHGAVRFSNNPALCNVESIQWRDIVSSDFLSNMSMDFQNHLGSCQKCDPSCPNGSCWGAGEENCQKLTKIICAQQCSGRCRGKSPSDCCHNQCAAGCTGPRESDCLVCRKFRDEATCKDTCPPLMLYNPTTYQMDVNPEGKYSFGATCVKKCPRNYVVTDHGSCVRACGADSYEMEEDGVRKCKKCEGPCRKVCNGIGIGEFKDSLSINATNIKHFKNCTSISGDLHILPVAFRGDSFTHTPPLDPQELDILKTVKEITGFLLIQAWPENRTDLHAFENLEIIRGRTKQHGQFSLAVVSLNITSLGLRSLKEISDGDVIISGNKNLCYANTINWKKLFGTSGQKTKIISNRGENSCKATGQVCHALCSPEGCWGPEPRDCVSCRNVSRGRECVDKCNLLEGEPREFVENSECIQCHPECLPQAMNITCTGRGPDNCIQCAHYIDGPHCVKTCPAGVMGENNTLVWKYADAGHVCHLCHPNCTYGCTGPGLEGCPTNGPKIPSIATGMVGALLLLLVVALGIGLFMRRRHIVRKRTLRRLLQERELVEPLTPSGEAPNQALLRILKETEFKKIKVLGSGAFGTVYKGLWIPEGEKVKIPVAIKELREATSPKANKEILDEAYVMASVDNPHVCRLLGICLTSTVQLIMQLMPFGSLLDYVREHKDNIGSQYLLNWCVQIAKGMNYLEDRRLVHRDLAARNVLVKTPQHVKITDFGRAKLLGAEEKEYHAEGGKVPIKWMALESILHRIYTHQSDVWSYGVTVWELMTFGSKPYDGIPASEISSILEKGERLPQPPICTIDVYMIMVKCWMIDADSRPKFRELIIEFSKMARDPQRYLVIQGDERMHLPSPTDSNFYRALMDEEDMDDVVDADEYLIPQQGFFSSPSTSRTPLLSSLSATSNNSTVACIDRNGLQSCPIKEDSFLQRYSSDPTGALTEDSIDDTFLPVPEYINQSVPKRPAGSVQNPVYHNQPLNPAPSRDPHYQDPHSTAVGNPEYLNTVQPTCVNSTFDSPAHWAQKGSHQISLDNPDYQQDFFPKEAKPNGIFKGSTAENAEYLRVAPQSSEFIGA
UniProt P00533, with tags, fused parts or gaps DEL746-750/C797S limits assumed: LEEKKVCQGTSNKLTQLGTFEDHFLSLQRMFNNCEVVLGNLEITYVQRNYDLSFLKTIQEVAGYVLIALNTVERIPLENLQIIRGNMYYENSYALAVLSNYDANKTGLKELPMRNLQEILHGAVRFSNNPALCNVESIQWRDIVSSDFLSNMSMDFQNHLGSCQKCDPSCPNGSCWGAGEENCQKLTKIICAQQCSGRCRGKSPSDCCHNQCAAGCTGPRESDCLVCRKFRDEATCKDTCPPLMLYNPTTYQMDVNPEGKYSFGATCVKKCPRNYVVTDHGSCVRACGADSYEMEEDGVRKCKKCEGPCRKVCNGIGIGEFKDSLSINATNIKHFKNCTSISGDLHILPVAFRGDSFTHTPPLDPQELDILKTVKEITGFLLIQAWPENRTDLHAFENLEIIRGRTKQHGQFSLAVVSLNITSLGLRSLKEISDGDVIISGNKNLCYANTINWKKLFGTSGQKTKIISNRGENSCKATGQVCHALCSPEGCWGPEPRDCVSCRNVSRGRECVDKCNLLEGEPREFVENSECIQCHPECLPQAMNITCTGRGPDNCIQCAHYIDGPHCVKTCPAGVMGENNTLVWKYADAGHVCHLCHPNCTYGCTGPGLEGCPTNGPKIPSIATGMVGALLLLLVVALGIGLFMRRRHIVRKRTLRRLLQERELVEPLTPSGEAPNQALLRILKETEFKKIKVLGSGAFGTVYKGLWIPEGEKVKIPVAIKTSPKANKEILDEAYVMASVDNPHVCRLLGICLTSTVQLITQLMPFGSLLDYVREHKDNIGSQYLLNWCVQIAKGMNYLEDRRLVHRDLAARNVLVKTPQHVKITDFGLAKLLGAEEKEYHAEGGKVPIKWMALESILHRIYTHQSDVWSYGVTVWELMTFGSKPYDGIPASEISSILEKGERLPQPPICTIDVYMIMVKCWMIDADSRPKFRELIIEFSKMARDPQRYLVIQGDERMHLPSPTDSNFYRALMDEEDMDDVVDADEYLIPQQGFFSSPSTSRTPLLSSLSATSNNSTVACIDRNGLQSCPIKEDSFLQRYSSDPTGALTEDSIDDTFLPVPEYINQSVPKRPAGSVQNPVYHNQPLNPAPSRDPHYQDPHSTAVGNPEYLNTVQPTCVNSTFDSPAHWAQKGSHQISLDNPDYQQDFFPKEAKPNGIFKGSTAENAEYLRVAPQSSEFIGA
UniProt P00533, with tags, fused parts or gaps DEL746-750/T790M/C797S limits assumed: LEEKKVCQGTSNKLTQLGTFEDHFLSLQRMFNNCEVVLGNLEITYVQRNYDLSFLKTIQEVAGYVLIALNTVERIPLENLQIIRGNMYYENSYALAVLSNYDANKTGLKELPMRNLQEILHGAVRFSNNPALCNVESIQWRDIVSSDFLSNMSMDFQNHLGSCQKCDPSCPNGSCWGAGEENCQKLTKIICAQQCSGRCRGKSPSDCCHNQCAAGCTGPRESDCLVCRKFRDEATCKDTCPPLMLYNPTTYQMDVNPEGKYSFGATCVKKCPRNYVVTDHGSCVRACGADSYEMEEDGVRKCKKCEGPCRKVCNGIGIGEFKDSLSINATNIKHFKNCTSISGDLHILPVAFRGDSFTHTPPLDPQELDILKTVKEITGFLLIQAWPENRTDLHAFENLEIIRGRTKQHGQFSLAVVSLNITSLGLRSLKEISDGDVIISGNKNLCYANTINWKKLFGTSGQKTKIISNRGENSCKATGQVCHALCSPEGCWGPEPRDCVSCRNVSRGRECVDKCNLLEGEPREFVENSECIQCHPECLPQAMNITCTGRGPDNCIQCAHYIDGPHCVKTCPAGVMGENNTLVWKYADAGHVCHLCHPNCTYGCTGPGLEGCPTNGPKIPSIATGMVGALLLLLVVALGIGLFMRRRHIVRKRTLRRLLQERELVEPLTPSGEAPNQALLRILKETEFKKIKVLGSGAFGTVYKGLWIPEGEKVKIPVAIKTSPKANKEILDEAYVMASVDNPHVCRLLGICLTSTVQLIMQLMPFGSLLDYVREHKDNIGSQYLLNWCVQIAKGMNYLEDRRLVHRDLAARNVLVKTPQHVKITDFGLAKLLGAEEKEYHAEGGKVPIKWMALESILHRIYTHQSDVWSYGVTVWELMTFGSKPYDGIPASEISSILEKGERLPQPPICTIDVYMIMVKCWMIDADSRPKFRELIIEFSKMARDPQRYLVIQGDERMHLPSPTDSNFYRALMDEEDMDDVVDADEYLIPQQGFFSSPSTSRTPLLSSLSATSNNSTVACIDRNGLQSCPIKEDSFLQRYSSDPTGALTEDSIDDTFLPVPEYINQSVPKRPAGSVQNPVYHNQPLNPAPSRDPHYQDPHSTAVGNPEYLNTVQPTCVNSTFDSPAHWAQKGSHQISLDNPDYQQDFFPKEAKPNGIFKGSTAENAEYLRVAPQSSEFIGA

Key:
[1] = target: EGFR D19CS (del19/C797S) (Homo sapiens, UniProt P00533, C797S/DEL746-750); test: Biochemical EGFR kinase assay (Lance Ultra TR-FRET), double mutant del19/C797S
[2] = target: EGFR LRTMCS (L858R/T790M/C797S) (Homo sapiens, UniProt P00533, C797S/L858R/T790M); test: Biochemical EGFR kinase assay (Lance Ultra TR-FRET), triple mutant L858R/T790M/C797S
[3] = target: EGFR WT (Homo sapiens, UniProt P00533); test: Biochemical EGFR kinase assay (Lance Ultra TR-FRET), wildtype
[4] = target: EGFR LRCS (L858R/C797S) (Homo sapiens, UniProt P00533, C797S/L858R); test: Biochemical EGFR kinase assay (Lance Ultra TR-FRET), double mutant L858R/C797S
[5] = target: EGFR D19TMCS (del19/T790M/C797S) (Homo sapiens, UniProt P00533, C797S/DEL746-750/T790M); test: Biochemical EGFR kinase assay (Lance Ultra TR-FRET), triple mutant del19/T790M/C797S
[6] = read-out: EGFR D19CS IC50, ATP 1 mM
[7] = read-out: EGFR D19CS IC50, ATP Km
[8] = read-out: EGFR LRTMCS IC50, ATP 1 mM
[9] = read-out: EGFR LRTMCS IC50, ATP Km
[10] = read-out: EGFR WT IC50, ATP 1 mM
[11] = read-out: EGFR LRCS IC50, ATP 1 mM
[12] = read-out: EGFR LRCS IC50, ATP Km
[13] = read-out: EGFR D19TMCS IC50, ATP 1 mM
[14] = read-out: EGFR D19TMCS IC50, ATP Km
[15] = read-out: IC50, EGFR-D19CS, 1 mM, ATP 1 mM, EGFR del19/C797S
[16] = read-out: IC50, EGFR-D19CS, Km, ATP at Km, EGFR del19/C797S
[17] = read-out: IC50, EGFR LRTMCS, 1 mM, ATP 1 mM, EGFR L858R/T790M/C797S
[18] = read-out: IC50, EGFR LRTMCS, Km, ATP at Km, EGFR L858R/T790M/C797S
[19] = read-out: IC50, EGFR WT, 1 mM, ATP 1 mM, EGFR wildtype
[20] = read-out: IC50, EGFR WT, Km, ATP at Km, EGFR wildtype
[21] = read-out: IC50, EGFR-LRCS, 1 mM, ATP 1 mM, EGFR L858R/C797S
[22] = read-out: IC50, EGFR-LRCS, Km, ATP at Km, EGFR L858R/C797S
[23] = read-out: IC50, EGFR D19TMCS, Km, ATP at Km, EGFR del19/T790M/C797S

Structure (SMILES): C[C@H]1CCOc2c(cnn2C)-c2nccc(n2)Nc2cc(c(-c3ncc(CN4CCC(F)CC4)cc3F)cn2)N1
- IC50 [1, 6]: < 10 nM
- IC50 [1, 7]: < 10 nM
- IC50 [2, 8]: < 10 nM
- IC50 [2, 9]: < 10 nM
- IC50 [3, 10]: > 1000 nM
- IC50 ([3]; read-out: EGFR WT IC50, ATP Km): < 10 nM
- IC50 [4, 11]: 10 to 100 nM
- IC50 [4, 12]: < 10 nM
- IC50 [5, 13]: < 10 nM
- IC50 [5, 14]: < 10 nM

Structure (SMILES): Cc1nn(C)c2c1-c1nccc(n1)Nc1cc(c(-c3cnc(C(C)(C)O)cn3)cn1)NCC[C@H](C)O2
- IC50 [1, 15]: 10 to 100 nM
- IC50 [1, 16]: < 10 nM
- IC50 [2, 17]: < 10 nM
- IC50 [2, 18]: < 10 nM
- IC50 [3, 19]: > 1000 nM
- IC50 [3, 20]: < 10 nM
- IC50 [4, 21]: 10 to 100 nM
- IC50 [4, 22]: < 10 nM
- IC50 [5, 23]: < 10 nM

Structure (SMILES): Cc1nn(C)c2c1-c1nccc(n1)Nc1cc(c(-c3ncc(CN4CC(F)(F)C4)cc3F)cn1)N[C@@H](C)CCO2
- IC50 [1, 6]: 10 to 100 nM
- IC50 [1, 7]: 10 to 100 nM
- IC50 [2, 8]: < 10 nM
- IC50 [2, 9]: < 10 nM
- IC50 [3, 10]: > 1000 nM
- IC50 ([3]; read-out: EGFR WT IC50, ATP Km): 10 to 100 nM
- IC50 [4, 11]: 100 to 1000 nM
- IC50 [4, 12]: 10 to 100 nM
- IC50 [5, 13]: < 10 nM
- IC50 [5, 14]: < 10 nM

Structure (SMILES): C[C@H]1CCNc2cc(ncc2-c2ncc(CN3CCN(C)CC3)cc2F)Nc2ccnc(n2)-c2cnn(C)c2O1
- IC50 [1, 6]: < 10 nM
- IC50 [1, 7]: < 10 nM
- IC50 [2, 8]: < 10 nM
- IC50 [2, 9]: < 10 nM
- IC50 [3, 10]: > 1000 nM
- IC50 ([3]; read-out: EGFR WT IC50, ATP Km): < 10 nM
- IC50 [4, 11]: < 10 nM
- IC50 [4, 12]: < 10 nM
- IC50 [5, 13]: < 10 nM
- IC50 [5, 14]: < 10 nM

Structure (SMILES): Cc1nn(C)c2c1-c1nccc(n1)Nc1cc(c(-c3ncc(C(C)(C)O)cn3)cn1)N[C@@H](C)CCO2
- IC50 [1, 15]: < 10 nM
- IC50 [1, 16]: < 10 nM
- IC50 [2, 17]: < 10 nM
- IC50 [2, 18]: < 10 nM
- IC50 [3, 19]: > 1000 nM
- IC50 [3, 20]: 10 to 100 nM
- IC50 [4, 21]: 10 to 100 nM
- IC50 [4, 22]: < 10 nM
- IC50 [5, 23]: < 10 nM

Structure (SMILES): C[C@H]1CCOc2c(cnn2C)-c2nccc(n2)Nc2cc(c(-c3cc(N4CC(CC(F)F)C4)ccn3)cn2)N1
- IC50 [1, 6]: > 1000 nM
- IC50 [1, 7]: 100 to 1000 nM
- IC50 [2, 8]: 10 to 100 nM
- IC50 [2, 9]: < 10 nM
- IC50 [3, 10]: > 1000 nM
- IC50 ([3]; read-out: EGFR WT IC50, ATP Km): 100 to 1000 nM
- IC50 [4, 11]: > 1000 nM
- IC50 [4, 12]: 100 to 1000 nM
- IC50 [5, 13]: 10 to 100 nM
- IC50 [5, 14]: < 10 nM

Structure (SMILES): C[C@@H]1CCOc2c(cnn2C)-c2nccc(n2)Nc2cc(c(-c3ncccc3F)cn2)N1
- IC50 [1, 6]: > 1000 nM
- IC50 [1, 7]: > 1000 nM
- IC50 [2, 8]: > 1000 nM
- IC50 [2, 9]: 10 to 100 nM
- IC50 [3, 10]: > 1000 nM
- IC50 ([3]; read-out: EGFR WT IC50, ATP Km): > 1000 nM
- IC50 [4, 11]: > 1000 nM
- IC50 [4, 12]: > 1000 nM
- IC50 [5, 13]: 100 to 1000 nM
- IC50 [5, 14]: 10 to 100 nM

Structure (SMILES): C[C@@H]1CCOc2c(cnn2C)-c2nccc(n2)Nc2cc(c(-c3ccn(C(F)F)n3)cn2)N1
- IC50 [1, 6]: 10 to 100 nM
- IC50 [1, 7]: < 10 nM
- IC50 [2, 8]: < 10 nM
- IC50 [2, 9]: < 10 nM
- IC50 [3, 10]: > 1000 nM
- IC50 ([3]; read-out: EGFR WT IC50, ATP Km): 10 to 100 nM
- IC50 [4, 11]: 100 to 1000 nM
- IC50 [4, 12]: < 10 nM
- IC50 [5, 13]: < 10 nM
- IC50 [5, 14]: < 10 nM

Structure (SMILES): Cn1nc(-c2cnc3cc2NC[C@@H](F)COc2c(cnn2C)-c2nccc(n2)N3)cc1C(F)(F)F
- IC50 [1, 6]: > 1000 nM
- IC50 [1, 7]: > 1000 nM
- IC50 [2, 8]: > 1000 nM
- IC50 [2, 9]: < 10 nM
- IC50 [3, 10]: > 1000 nM
- IC50 ([3]; read-out: EGFR WT IC50, ATP Km): 100 to 1000 nM
- IC50 [4, 11]: > 1000 nM
- IC50 [4, 12]: 100 to 1000 nM
- IC50 [5, 13]: 10 to 100 nM
- IC50 [5, 14]: < 10 nM

Structure (SMILES): C[C@H]1CCOc2c(cnn2C)-c2nccc(n2)Nc2cc(c(-c3ccn(C(F)F)n3)cn2)N1
- IC50 [1, 6]: 10 to 100 nM
- IC50 [1, 7]: < 10 nM
- IC50 [2, 8]: < 10 nM
- IC50 [2, 9]: < 10 nM
- IC50 [3, 10]: > 1000 nM
- IC50 ([3]; read-out: EGFR WT IC50, ATP Km): 10 to 100 nM
- IC50 [4, 11]: 100 to 1000 nM
- IC50 [4, 12]: < 10 nM
- IC50 [5, 13]: < 10 nM
- IC50 [5, 14]: < 10 nM

Structure (SMILES): Cc1nn(C)c2c1-c1nccc(n1)Nc1cc(c(-c3ncc(CN4CC[C@@H](O)C4)cc3F)cn1)N[C@@H](C)CCO2
- IC50 [1, 15]: 10 to 100 nM
- IC50 [1, 16]: < 10 nM
- IC50 [2, 17]: < 10 nM
- IC50 [2, 18]: < 10 nM
- IC50 [3, 19]: > 1000 nM
- IC50 [3, 20]: 10 to 100 nM
- IC50 [4, 21]: 10 to 100 nM
- IC50 [4, 22]: < 10 nM
- IC50 [5, 23]: < 10 nM

Structure (SMILES): Cc1nn(C)c2c1-c1nccc(n1)Nc1cc(c(-c3ncc(CN4CCC[C@H](O)C4)cc3F)cn1)N[C@@H](C)CCO2
- IC50 [1, 15]: 10 to 100 nM
- IC50 [1, 16]: < 10 nM
- IC50 [2, 17]: < 10 nM
- IC50 [2, 18]: < 10 nM
- IC50 [3, 19]: > 1000 nM
- IC50 [3, 20]: 10 to 100 nM
- IC50 [4, 21]: 100 to 1000 nM
- IC50 [4, 22]: < 10 nM
- IC50 [5, 23]: < 10 nM

Structure (SMILES): C[C@H]1CCOc2c(cnn2C)-c2nccc(n2)Nc2cc(c(-c3ccc(OC(F)F)cn3)cn2)N1
- IC50 [1, 6]: 10 to 100 nM
- IC50 [1, 7]: < 10 nM
- IC50 [2, 8]: < 10 nM
- IC50 [2, 9]: < 10 nM
- IC50 [3, 10]: > 1000 nM
- IC50 ([3]; read-out: EGFR WT IC50, ATP Km): 10 to 100 nM
- IC50 [4, 11]: 100 to 1000 nM
- IC50 [4, 12]: 10 to 100 nM
- IC50 [5, 13]: < 10 nM
- IC50 [5, 14]: < 10 nM

Structure (SMILES): Cc1nn(C)c2c1-c1nccc(n1)Nc1cc(c(-c3ncc(C(C)(C)O)cc3F)cn1)NCC[C@@H](C)O2
- IC50 [1, 15]: 10 to 100 nM
- IC50 [1, 16]: < 10 nM
- IC50 [2, 17]: < 10 nM
- IC50 [2, 18]: < 10 nM
- IC50 [3, 19]: > 1000 nM
- IC50 [3, 20]: 10 to 100 nM
- IC50 [4, 21]: 10 to 100 nM
- IC50 [4, 22]: < 10 nM
- IC50 [5, 23]: < 10 nM

Structure (SMILES): Cc1nn(C)c2c1-c1nccc(n1)Nc1cc(c(-c3ncc(CN4CCC(F)(F)CC4)cc3F)cn1)N[C@@H](C)CCO2
- IC50 [1, 15]: 10 to 100 nM
- IC50 [1, 16]: 10 to 100 nM
- IC50 [2, 17]: 10 to 100 nM
- IC50 [2, 18]: < 10 nM
- IC50 [3, 19]: > 1000 nM
- IC50 [3, 20]: 10 to 100 nM
- IC50 [4, 21]: 100 to 1000 nM
- IC50 [4, 22]: < 10 nM
- IC50 [5, 23]: 10 to 100 nM
